Laboratory results reported in patent US10287530B2, “Surfactants based on monounsaturated fatty alcohol derivatives” (priority 2013, dated 2019).
Like-named read-outs stand apart in the source and are kept apart here.

Experiments:
[1] = assay type: physicochemical; settings: 342 ppm water
Protocol: Surfactant candidates for water soluble herbicide applications are examined as a replacement for the anionic, nonionic, or anionic/nonionic blend portion and compared to a known industry adjuvant standard for use in paraquat, a water soluble herbicide concentrate formulation. A standard dilution test is conducted whereby the concentrates are diluted in water to determine if solubility is complete.
A known industry paraquat adjuvant (2.8 g) is added and vigorously mixed for 30 s. Deionized water (8.07 g) is added, and mixing resumes for 30 s. […] The cylinder is stoppered and inverted ten times. Solubility is recorded as complete or incomplete. Cylinders are allowed to stand and the amount (in mL) and type of separation are recorded after 30 min., 1 h, 2 h, and 24 h. Results of the solubility testing appear in Table 4 below.
An eight to ten mole alkyl phenol ethoxylate surfactant (0.7 g) is added and vigorously mixed for 30 s. Test sample (0.7 g) is added and mixing resumes for 30 s. Deionized water (4.03 g) is added, and mixing resumes for 30 s.
Test sample (0.7 g) is added and vigorously mixed for 30 s. Sodium linear alkylbenzene sulfonate (“NaLAS,” 0.7 g) is added and mixing resumes for 30 s. Deionized water (4.03 g) is added, and mixing resumes for 30 s.
Test sample (1.4 g) is added and vigorously mixed for 30 s. Deionized water (4.03 g) is added, and mixing resumes for 30 s.

[2] = Appearance and solubility of surfactants and of 1:1 molar blends with cationic surfactant; assay type: physicochemical
Protocol: The surfactant blends tested are prepared at a 1:1 molar ratio without any pH adjustment. Dilutions are made using deionized water to the desired actives level. Actives amounts are wt. % unless indicated otherwise. Appearances are reported at ambient temperature for samples prepared within the last 24 h.

[3] = Adjuvant (anionic/nonionic) test sample
[4] = Nonionic test sample: replaces nonionic portion (with NaLAS)

Substance | sol (solubility) [1, 3] | Emulsion stability, mL separation, 1 h ([1]; Anionic test sample) [mL] | Solubility [2] | sol (solubility) [1, 4] | Emulsion stability, mL separation, 1 h [1, 3] [mL] | Emulsion stability, mL separation, 24 h [1, 3] [mL] | Emulsion stability, mL separation, 24 h ([1]; Anionic test sample) [mL] | Emulsion stability, mL separation, 1 h ([1]; Nonionic test sample) [mL] | Appearance, 0.1% ([2]; 1:1 molar blend of the anionic with Ammonyx Cetac 30, 0.1% actives, ambient temperature) | Appearance, 1.0% ([2]; 1:1 molar blend of the anionic with Ammonyx Cetac 30, 1.0% actives, ambient temperature)
Undecylenic Alcohol, 1EO Ether Sulfate, Ammonium Salt [Unsat. 1EO NH4 sulfate] | S | 0 | good |  |  |  |  |  |  | 
Undecylenic Alcohol Sulfate, Sodium Salt [Unsat. C11 alcohol Na sulfate] |  |  |  | I |  |  |  |  |  | 
1-Undecanol, 1EO Ether Sulfate, Ammonium Salt [Sat. 1EO NH4 sulfate] | S |  | fair-poor | S | 0 | 0 | 0 | 0 | hazy liquid | separated
